Data taken from paper PMC7252906 (Toxicology and applied pharmacology, 2019).
Where two headings read alike, the source gives them in different places.

Experiments:
[1] = male rats, gavage 160 mg/kg, 24 h; DMAE pre-treatment 500 mg/kg, 1 h prior
[2] = female mice, gavage 160 mg/kg, 24 h, listed as [^14C]choline

## C[N+](C)(C)CCO [choline, N,N,N-trimethylaminoethanol]
[1]
  % Dose Recovered, Feces: 11.2 ± 8.40 % dose
[2]; DMAE dose 0, 160 mg/kg
  % Dose Recovered, Total Recovered: 80.8 ± 16.7 % dose
[2]; DMAE pre-treatment 500 mg/kg, 1 h prior
  % Dose Recovered, Feces: 11.2 ± 5.90 % dose
